Measured values reported in patent US5916925A, “Pharmaceutical composition for treatment of dementia” (Takeda Chemical Industries, Ltd., priority 1996, dated 1999).

Assays:
[1] = system: patients with senile dementia of Alzheimer's type; test: double-blind placebo controlled multicenter study, efficacy parameters (ADAS, CGI, NOSGER, SKT); format: in vivo, human
Experimental: In patients with senile dementia of Alzheimer's type, a double-blind placebo controlled multicenter comparative study was conducted under the conditions shown below.
(1) Placebo administration
Oral administration just after every meal

in vivo = details: rat, acute toxicity LD50
rats = details: rat, in vivo

SMILES: COC1=C(OC)C(=O)C(CCCCCCCCCCO)=C(C)C1=O [idebenone, 6-(10-hydroxydecyl) -2,3-dimethoxy-5-methyl-1,4-benzoquinone]
- CGI Therapeutic Effect, differences among groups ([1]; 90 mg, 120 mg 3-times-a-day and placebo): significant differences among the three groups were noted, with dose dependency
- ADAS Cognitive Score, therapeutic effect ([1]; period exceeding 6 months): excellent
- ADAS Sum Score, therapeutic effect ([1]; period exceeding 6 months): excellent
- CGI Global Improvement, therapeutic effect ([1]; period exceeding 6 months): excellent
- CGI Severity of Disease, therapeutic effect ([1]; period exceeding 6 months): excellent
- CGI Therapeutic Effect, therapeutic effect ([1]; period exceeding 6 months): excellent
- NOSGER IADL, therapeutic effect ([1]; period exceeding 6 months): excellent
- NOSGER Sum Score, therapeutic effect ([1]; period exceeding 6 months): excellent
- SKT, therapeutic effect ([1]; period exceeding 6 months): excellent
- LD50 (in vivo): ≥ 10000 mg/kg
- acute toxicity LD50 (rats): about 10,000 mg/kg
